Publication PMC3816987

Chains of the proteins cited; added tags and fusions are not shown. Residues count along the entry.
UniProt P50586, 1-242: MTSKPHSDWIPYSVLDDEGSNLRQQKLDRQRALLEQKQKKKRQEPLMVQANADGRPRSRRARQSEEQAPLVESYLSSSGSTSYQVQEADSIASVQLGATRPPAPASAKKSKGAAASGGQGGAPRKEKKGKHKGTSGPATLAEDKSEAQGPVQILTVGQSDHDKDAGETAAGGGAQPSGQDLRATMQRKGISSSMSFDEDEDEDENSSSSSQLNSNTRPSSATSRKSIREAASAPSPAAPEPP

Target: GST-free tubby-N (tubby N-terminus, 1M-242P) (mouse) (UniProt P50586)
Experiment: phage binding assay

**Q.** How did the binding specificity, clonal phage vs. control phage turn out when “Paf1/RNA polymerase II complex component (Rtf1) phage clone, 69N-186K (domain or fragment)” was run?
**A.** 6.4 X
